Assay: Inhibition of F1F0-ATP synthase in Escherichia coli

In the case of `CC[C@H](C)[C@H](NC(=O)CN)C(=O)NCC(=O)N[C@@H](C)C(=O)N[C@H](C(=O)N[C@@H](CC(C)C)C(=O)N[C@@H](CCCCN)C(=O)N[C@H](C(=O)N[C@@H](CC(C)C)C(=O)N[C@H](C(=O)N[C@H](C(=O)NCC(=O)N[C@@H](CC(C)C)C(=O)N1CCC[C@H]1C(=O)N[C@@H](C)C(=O)N[C@@H](CC(C)C)C(=O)N[C@H](C(=O)N[C@@H](CO)C(=O)N[C@@H](Cc1c[nH]c2ccccc12)C(=O)N[C@H](C(=O)N[C@@H](CCCCN)C(=O)N[C@@H](CCCNC(=N)N)C(=O)N[C@@H](CCCCN)C(=O)N[C@@H](CCCNC(=N)N)C(=O)N[C@@H](CCC(N)=O)C(=O)N[C@@H](CCC(N)=O)C(N)=O)[C@@H](C)CC)[C@@H](C)CC)[C@@H](C)O)[C@@H](C)O)C(C)C)C(C)C` [MELITTIN], the IC50 is reported as 7.84 µM.
